From patent US6472373B1, “Combination therapy for eradicating detectable HCV-RNA in antiviral treatment naive patients having chronic hepatitis C infection” (priority 1997, dated 2002)

Columns and labels:
[1] = test system: serum HCV-RNA; assay: Study 2: virologic response by serum HCV-RNA/qPCR; assay type: in vivo, patients
[2] = test system: serum HCV-RNA; assay: Study 1: virologic response by serum HCV-RNA/qPCR; assay type: in vivo, patients
[3] = test system: chronic hepatitis C; assay: Study 2: overall response (sustained HCV-RNA loss plus Knodell HAI improvement); assay type: in vivo, patients; conditions: 48 weeks treatment
[4] = test system: chronic hepatitis C (hepatic inflammation); assay: Study 2: liver histology, Knodell HAI (I+II+III) score; assay type: in vivo; conditions: patients with paired biopsies, 48 weeks treatment
[5] = test system: chronic hepatitis C; assay: Study 1: overall response (sustained HCV-RNA loss plus Knodell HAI improvement); assay type: in vivo, patients
From the text: The primary efficacy variable was the overall response defined as loss of serum HCVRNA/qPCR (<100 copies/mL) as measured at 24 weeks following the end of therapy.
The End of Follow-up overall response rate is a composite of the loss of serum HCV-RNA(qPCR) and change in liver histology at end of follow-up (24 weeks following the end of treatment). A patient was classified as an overall responder if HCV-RNA(PCR) was negative at the 24 week posttreatment evaluation and the posttreatment Knodell HAI inflammation score (sum of categories I+II+III) had improved if the posttreatment value had decreased by 2 or more units relative to the pretreatment score. The percent of sustained virologic responders by time to first negative HCV-RNA, the End of Follow-up (sustained) virologic response, histologic response, and overall response rates are summarized in Tables 2, 3, 4 and 5.
When the study was designed, it was recognized that because liver biopsy is an invasive procedure that it would be unlikely that posttreatment liver biopsies would be obtained for all patients. Therefore, the protocol and statistical analysis plan specified that the analysis for overall response would be based on data for all treated patients and will be estimated by a maximum likelihood method (MLE) for patients whose overall response status could not be determined, ie, patients with negative HCV-RNA and missing (posttreatment) biopsy evaluations. The protocol also specified that an additional analysis would be performed on patients with both pretreatment and posttreatment biopsy results (ie, patients with complete data). The overall response is a composite of sustained loss of detectable HCV-RNA and improvement in liver histology at End of Follow-Up. Overall response is summarized in Table 5 based on the following analyses: […]

[6] = Study 1, all treated, 24 weeks treatment
[7] = Study 1, all treated, 48 weeks treatment

Q: What does the source list for “INTRON A + Placebo: INTRON A (interferon alpha-2b, recombinant) 3 million IU SC TIW plus placebo matching ribavirin; interferon monotherapy comparator”?
A: Sustained Virologic Response ([1]; Other genotype/≦2 million copies/mL, 48 weeks treatment): 31% (15/49); Percent of Sustained Virologic Responders by Time to First No Detectable HCV-RNA Levels ([1]; first no-detectable HCV-RNA at Week 4, 48 weeks treatment): 72% (33/46); Percent of Sustained Virologic Responders by Time to First No Detectable HCV-RNA Levels ([1]; first no-detectable HCV-RNA at Week 12, 48 weeks treatment): 34% (18/53); Percent of Sustained Virologic Responders by Time to First No Detectable HCV-RNA Levels ([1]; first no-detectable HCV-RNA at Week 24, 48 weeks treatment): 10% (2/21); Sustained Response ([2]; Study 1, Genotype 1, >2 million copies/ml, 48 weeks treatment): 3% (3/119); Sustained Response ([2]; Study 1, Genotype 1, ≦2 million copies/ml, 24 weeks treatment): 4% (2/54); Sustained Response ([2]; Study 1, Genotype 1, ≦2 million copies/ml, 48 weeks treatment): 19 % (8/43); Sustained Virologic Response Rates by HCV Genotype ([2]; Study 1, Genotype 2, 24 weeks treatment): 18% (7/38); Sustained Virologic Response Rates by HCV Genotype ([2]; Study 1, Genotype 2, 48 weeks treatment): 35% (15/43; Sustained Virologic Response Rates by HCV Genotype ([2]; Study 1, Genotype 3, 24 weeks treatment): 8% (2/24); Sustained Virologic Response Rates by HCV Genotype ([2]; Study 1, Genotype 3, 48 weeks treatment): 16% (3/19); Sustained Virologic Response Rates by HCV Genotype ([2]; Study 1, Genotype 4-6, 24 weeks treatment): 0%; Sustained Virologic Response Rates by HCV Genotype ([2]; Study 1, Genotype 4-6, 48 weeks treatment): 0%; Sustained Response ([2]; Study 1, Other Genotypes, >2 million copies/ml, 24 weeks treatment): 11% (5/44); Sustained Response ([2]; Study 1, Other Genotypes, >2 million copies/ml, 48 weeks treatment): 19% (8/43); Sustained Response ([2]; Study 1, Other Genotypes, ≦2 million copies/ml, 24 weeks treatment): 25% (5/20); Sustained Response ([2]; Study 1, Other Genotypes, ≦2 million copies/ml, 48 weeks treatment): 50% (10/20); Sustained Response ([2]; Study 1, Other Genotypes, 48 weeks treatment): 29% (18/63); Non Responder at End of Follow-up [2, 6]: 165 (71%); Relapser at End of Follow-up (relapse rate) [2, 6]: 53 (23%); Serum HCV-RNA Positive at EOT, proportion of patients [2, 6]: 165 (71%); Sustained Responders at End of Follow-up (24 weeks following EOT) [2, 6]: 13 (6%); Non Responder at End of Follow-up [2, 7]: 170 (76%); Relapser at End of Follow-up (relapse rate) [2, 7]: 26 (12%); Serum HCV-RNA Negative at EOT, proportion of patients [2, 7]: 54 (24%); Serum HCV-RNA Positive at EOT, proportion of patients [2, 7]: 171 (76%); Sustained Responders at End of Follow-up (24 weeks following EOT) [2, 7]: 29 (13%); Relapser at End of Follow-up (relapse rate) ([2]; Study 1, all treated, 48 weeks treatment, listed as Intron A plus placebo): 12%; Percent of Sustained Virologic Responders by Time to First No Detectable HCV-RNA Levels ([2]; Study 1, first no-detectable HCV-RNA at Week 4, 24 weeks treatment): 48% (10/21); Percent of Sustained Virologic Responders by Time to First No Detectable HCV-RNA Levels ([2]; Study 1, first no-detectable HCV-RNA at Week 4, 48 weeks treatment): 70% (14/20); Percent of Sustained Virologic Responders by Time to First No Detectable HCV-RNA Levels ([2]; Study 1, first no-detectable HCV-RNA at Week 12, 24 weeks treatment): 9% (3/32); Percent of Sustained Virologic Responders by Time to First No Detectable HCV-RNA Levels ([2]; Study 1, first no-detectable HCV-RNA at Week 12, 48 weeks treatment): 35% (11/31); Percent of Sustained Virologic Responders by Time to First No Detectable HCV-RNA Levels ([2]; Study 1, first no-detectable HCV-RNA at Week 24, 24 weeks treatment): 0% (0/22); Percent of Sustained Virologic Responders by Time to First No Detectable HCV-RNA Levels ([2]; Study 1, first no-detectable HCV-RNA at Week 24, 48 weeks treatment): 22% (4/18); Sustained Response ([2]; Study 1, viral load >2 million copies/mL, 24 weeks treatment): 4% (6/157); Sustained Response ([2]; Study 1, viral load >2 million copies/mL, 48 weeks treatment): 7% (11/162); Sustained Response ([2]; Study 1, viral load ≦2 million copies/ml, 24 weeks treatment): 9% (7/74); Sustained Response ([2]; Study 1, viral load ≦2 million copies/ml, 48 weeks treatment): 29% (18/63); Proportion of patients with eradication of HCV-RNA in the serum 24 weeks following the End of Treatment ([2]; printed in the Study 1 results text, treatment duration not stated): 16%; Overall Response Rate, ML Estimate [3]: 17%; Overall Response Rate, Patients with Complete Biopsy Data [3]: 17% (32/191); Overall Response Rate, treat missing as failures [3]: 12% (32/278); Improved Biopsy: Knodell HAI (I+II+III) decrease of 2 or more, 24 weeks following EOT [4]: 39% (74); Overall Response Rate, maximum likelihood estimate ([5]; 24 weeks treatment): 5%; Overall Response Rate, patients with complete data ([5]; 24 weeks treatment): 5%; Overall Response Rate, maximum likelihood estimate ([5]; 48 weeks treatment): 9%; Overall Response Rate, patients with complete data ([5]; 48 weeks treatment): 11%; Overall Response Rate, treat missing as failures ([5]; 48 weeks treatment): 8%
